Molecular target: human cytochrome P450 (CYP) 2C9 (Homo sapiens, UniProt P11712)
Experiment: Cytochrome P450 Inhibition Assay 2C9
Conditions: read-out: IC50 range, CYP 2C9; expected IC50 range of known inhibitor (positive control); substrate 50 μM
Procedure: The inhibitory potential (IC50) of test compounds against 5 human cytochrome P450 (CYP) isoforms (1A2, 2C9, 2C19, 3A4 and 2D6) was assessed using an automated fluorescent end point in vitro assay modified from Crespi (Crespi and Stresser, 2000). Microsomal subcellular fractions prepared from Yeast cell lines expressing each human CYP isoform were used as an enzyme source in this assay. The activity of the 5 major human CYPs was determined from the biotransformation of a number of coumarin substrates to fluorescent metabolites, in the presence of NADPH. […] Stock solutions of each CYP, with its respective substrate, were prepared in phosphate buffer pH7.4 (see Table 1) and 178 μl was added to the well of a black solid, flat bottom, 300 μl 96 well is microtitre plate (Corning Costar). […] After pre-incubating at 37° C. for 5 min the reactions were started with addition of NADPH (20 μl, concentration shown in Table 1). […] The appropriate solvent controls and substrate blanks were included in each experiment to assess control activity and identify any inherent fluorescence due to the test compounds. […] The plates were read on a fluorimeter (Spectrafluor Plus) at the appropriate excitation and emission wavelengths (listed in Table 2) and the percent activity, corrected for control, was plotted against the test compound concentration.

Protein sequences, listed by entry. Tags and fused reporters are not part of them.
UniProt P11712, whole entry: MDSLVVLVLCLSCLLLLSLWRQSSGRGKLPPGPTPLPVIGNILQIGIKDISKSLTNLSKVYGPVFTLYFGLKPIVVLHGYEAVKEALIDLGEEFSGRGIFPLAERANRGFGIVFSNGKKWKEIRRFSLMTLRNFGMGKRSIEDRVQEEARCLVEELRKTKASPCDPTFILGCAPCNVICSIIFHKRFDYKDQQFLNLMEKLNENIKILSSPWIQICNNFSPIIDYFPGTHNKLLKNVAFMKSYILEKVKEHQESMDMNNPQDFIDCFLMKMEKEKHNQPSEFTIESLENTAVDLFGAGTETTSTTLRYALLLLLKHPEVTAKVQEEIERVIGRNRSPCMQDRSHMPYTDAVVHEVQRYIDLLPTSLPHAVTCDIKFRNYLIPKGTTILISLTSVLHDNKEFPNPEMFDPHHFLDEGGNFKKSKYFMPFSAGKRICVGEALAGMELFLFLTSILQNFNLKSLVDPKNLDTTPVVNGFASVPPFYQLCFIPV

Sulphaphenazole
IC50: 0.1 to 1 µM
